# Test results reported in PubChem BioAssay AID651699 (Sanford-Burnham Center for Chemical Genomics, 2012).
# Amino acid sequences for entries named in this document (tags omitted).
# UniProt P61081, whole entry, looked up: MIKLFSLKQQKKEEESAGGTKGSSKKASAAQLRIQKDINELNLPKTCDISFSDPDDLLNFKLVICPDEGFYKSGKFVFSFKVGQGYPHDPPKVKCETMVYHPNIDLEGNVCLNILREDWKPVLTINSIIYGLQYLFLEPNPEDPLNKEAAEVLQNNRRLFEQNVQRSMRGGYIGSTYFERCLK
# UniProt Q13564, whole entry, looked up: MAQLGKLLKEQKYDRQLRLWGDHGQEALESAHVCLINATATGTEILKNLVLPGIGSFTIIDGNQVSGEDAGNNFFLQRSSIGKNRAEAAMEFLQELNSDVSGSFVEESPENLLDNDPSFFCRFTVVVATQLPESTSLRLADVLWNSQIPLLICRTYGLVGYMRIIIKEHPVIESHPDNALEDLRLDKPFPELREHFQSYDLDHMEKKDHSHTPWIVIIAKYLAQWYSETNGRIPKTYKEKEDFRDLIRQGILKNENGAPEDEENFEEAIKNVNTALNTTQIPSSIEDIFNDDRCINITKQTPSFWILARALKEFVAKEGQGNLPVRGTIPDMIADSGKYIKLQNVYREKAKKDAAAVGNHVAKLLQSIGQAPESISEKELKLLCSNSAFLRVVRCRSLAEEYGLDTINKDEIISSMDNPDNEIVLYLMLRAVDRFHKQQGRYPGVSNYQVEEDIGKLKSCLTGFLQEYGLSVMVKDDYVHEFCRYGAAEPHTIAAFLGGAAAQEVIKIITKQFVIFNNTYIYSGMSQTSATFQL
# This is a selection; strong and weak results do not stand in their true shares. The source made the active and inactive calls. Rule as the data show it: active = inhibition above about 36%; inactive = the rest.
# Molecular target: NEDD8-conjugating enzyme Ubc12 (Homo sapiens) + NEDD8-activating enzyme E1 regulatory subunit (Homo sapiens) (UniProt P61081+Q13564)
# Assay: NEDD8 transfer onto cullin, blockade – biochemical, TR-FRET, uHTS, NAE and Ubc12, primary screen (AID 651699)
# Conditions: TR-FRET cullin neddylation, at 25 µM, stronger effect = higher value
row,Compound,inhibition
1,COc1cc(OC)c(C(=O)NCC2(N(C)C)CCCCC2)cc1OC,inactive: 7.76%
2,O=C(NCC1(N2CCCCC2)CCCCC1)c1cncc(Br)c1,inactive: 2.27%
3,CN1CCC(Nc2cccc(F)c2)CC1,inactive: 6.06%
4,CCCOc1ccc(C(=O)NCC2(N(C)C)CCCCC2)cc1OC,inactive: -1.12%
5,Cc1ccc(C(=O)NCC2(N(C)C)CCCCC2)o1,inactive: 10.8%
6,COc1ccc(C(c2nnnn2C2CCCC2)N2CCC(n3c(=O)[nH]c4ccccc43)CC2)cc1 (centres undefined),inactive: -1.59%
7,O=C(NCC1(N2CCCCC2)CCCCC1)c1ccc(OC(F)F)cc1,inactive: -9.56%
8,CC(C)(C)n1nnnc1C(c1ccccc1OC(F)(F)F)N1CCC(n2c(=O)[nH]c3ccccc32)CC1 (centres undefined),inactive: 2.11%
9,O=C(NCC1(N2CCCCC2)CCCCC1)c1cccc([N+](=O)[O-])c1,inactive: -1.83%
10,CSc1ccc(C(=O)NCC2(N3CCOCC3)CCCCC2)cc1,inactive: -2.63%
11,N#CC1(Nc2ccccc2)CCN(CCc2ccccc2)CC1,inactive: -2.35%
12,O=c1[nH]c2ccccc2n1C1CCN(C(c2ccccc2OC(F)(F)F)c2nnnn2C2CCCC2)CC1 (centres undefined),inactive: -6.56%
13,CCN1CCC(Nc2ccc(Cl)cc2)CC1,inactive: 1.63%
14,O=C(NCC1(N2CCCCC2)CCCCC1)c1cccc(C(F)(F)F)c1,inactive: 1.65%
15,CCCCn1nnnc1C(c1cccc2ccccc12)N1CCC(n2c(=O)[nH]c3ccccc32)CC1 (centres undefined),inactive: 1.37%
16,CC(C)c1ccc(C(=O)NCC2(N3CCOCC3)CCCCC2)cc1,inactive: -0.48%
17,COc1ccc(NC2CCN(C(=O)OC(C)(C)C)CC2)cc1,inactive: -3.1%
18,CN1CCN(CCOC(=O)C(O)(c2ccccc2)c2ccccc2)CC1,inactive: 0.43%
19,O=C(NCC1(N2CCOCC2)CCCCC1)c1cc(=O)[nH]c2ccccc12,inactive: 17.2%
20,COc1cc(C(=O)NCC2(N3CCCCC3)CCCCC2)ccc1OC(F)F,inactive: 3.66%
21,CCOc1ccc(C)cc1CN(CCCl)CCCl,inactive: -0.4%
22,O=C1CCN(Cc2ccccc2)CC1,inactive: 0.31%
23,CC(C)(C)n1nnnc1C(c1ccccc1)N1CCC(n2c(=O)[nH]c3ccccc32)CC1 (centres undefined),inactive: 3.57%
24,CCOC(=O)N1CCC(Nc2ccc(F)cc2)CC1,inactive: -3.25%
25,COc1ccc(NC2CCN(CCc3ccccc3)CC2)c(OC)c1,inactive: -14.4%
26,O=C(NCC1(N2CCCCC2)CCCCC1)c1ccc(F)cc1,inactive: -10.6%
27,CCCCOc1ccc(C(=O)NCC2(N3CCOCC3)CCCCC2)cc1,inactive: 0.23%

row,Compound,inhibition
1,CCCCn1nnnc1C(c1cc2ccccc2o1)N1CCC(n2c(=O)[nH]c3ccccc32)CC1 (centres undefined),inactive: -2.95%
2,O=P1(N(CCCl)CCCl)SCCCS1,inactive: 2.06%
3,O=c1[nH]c2ccccc2n1C1CCN(C(c2ccccc2)c2nnnn2C2CCCCC2)CC1 (centres undefined),inactive: 0.44%
4,O=c1[nH]c2ccccc2n1C1CCN(C(c2cccc3ccccc23)c2nnnn2C2CCCC2)CC1 (centres undefined),inactive: -7.6%
5,COc1cc(C(=O)NCC2(N(C)C)CCCCC2)ccc1OC(F)F,inactive: 4.53%
6,CCOC(=O)N1CCC(Nc2cccc(C)c2)CC1,inactive: -1.22%
7,CCCCn1nnnc1C(c1cccs1)N1CCC(n2c(=O)[nH]c3ccccc32)CC1 (centres undefined),inactive: 6.83%
8,O=C(NCC1(N2CCCCC2)CCCCC1)c1cccs1,inactive: 1.04%
9,CCCCn1nnnc1C(CC)N1CCC(n2c(=O)[nH]c3ccccc32)CC1 (centres undefined),inactive: 7.43%
10,O=C(NCC1(N2CCCCC2)CCCCC1)c1ccc(=O)[nH]c1,inactive: -3.1%
11,CCC(c1nnnn1C1CCCC1)N1CCC(n2c(=O)[nH]c3ccccc32)CC1 (centres undefined),inactive: 0.41%
12,CC(C)(C)OC(=O)N1CCC(N(C(=O)c2ccccc2)c2ccc(F)cc2)CC1,inactive: -1.62%
13,COc1ccc(C(=O)NCC2(N3CCCCC3)CCCCC2)c(OC)c1OC,inactive: 7.76%
14,COc1ccc(C(=O)NCC2(N3CCCCC3)CCCCC2)cc1,inactive: -3.58%
15,Cc1cccc(NC2(C#N)CCN(Cc3ccccc3)CC2)c1,inactive: -2.3%
16,CSc1ccccc1C(=O)NCC1(N2CCCCC2)CCCCC1,inactive: -0.33%
17,O=C(NCC1(N2CCOCC2)CCCCC1)c1cc2ccccc2o1,inactive: 9.38%
18,Cc1cc(C)cc(N(C(=O)c2ccccc2)C2CCN(C(=O)OC(C)(C)C)CC2)c1,inactive: 3.69%
19,O=c1[nH]c2ccccc2n1C1CCN(C(c2ccccc2OC(F)(F)F)c2nnnn2C2CCCCC2)CC1 (centres undefined),inactive: -0.56%
20,O=C(NCC1(N2CCCCC2)CCCCC1)c1ccc(Cl)nc1,inactive: 16%
21,CCCCn1nnnc1C(c1ccc(OC)cc1)N1CCC(n2c(=O)[nH]c3ccccc32)CC1 (centres undefined),inactive: 1.84%
22,CCOC(=O)N1CCC(Nc2ccc(OC)cc2)CC1,inactive: -2.67%
23,COc1ccc(Cl)cc1C(=O)NCC1(N2CCOCC2)CCCCC1,inactive: 0.84%
24,O=c1[nH]c2ccccc2n1C1CCN(C(c2cc3ccccc3o2)c2nnnn2C2CCCCC2)CC1 (centres undefined),inactive: -23.1%
25,O=C(OC1CN2CCC1CC2)C1c2ccccc2Oc2ccccc21 (centres undefined),inactive: -1.37%
26,O=C(NCC1(N2CCCCC2)CCCCC1)c1ccc(Cl)s1,inactive: -8.79%
27,N#CC1(Nc2ccccc2)CCN(Cc2ccccc2)CC1,inactive: -1.28%
